68 compounds from PubChem BioAssay AID759 (NMMLSC, 2007) can be followed below.

The chains behind the UniProt entries cited, without tags or fusion partners.
UniProt P01112, whole entry: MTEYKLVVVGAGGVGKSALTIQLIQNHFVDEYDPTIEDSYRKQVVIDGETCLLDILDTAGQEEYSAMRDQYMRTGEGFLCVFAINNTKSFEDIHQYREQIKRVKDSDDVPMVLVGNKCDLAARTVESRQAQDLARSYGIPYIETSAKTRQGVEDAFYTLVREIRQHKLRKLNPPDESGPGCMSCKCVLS

Each structure is given as a SMILES string. Only a part is listed here, and it is no random draw. Activity calls are given as the source filed them.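 How the source made its calls: active means GTP binding activity at least 20% away from the 100% baseline, either lowered as inhibitor or raised as activator; inconclusive means flagged as likely green fluorescent, judged across all proteins in the well; inactive means the rest.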

This assay addresses GTPase HRas (Homo sapiens) (UniProt P01112). Description: HRas wt fluorescent GTP binding changes, either direction – biochemical, wildtype, bead-based flow cytometry, multiplex, primary screen (AID 759).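 Further: 0% = unlabeled GTP competition control and 100% = no-compound control.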 The conditions noted are these: GST-Ras wt beads, Bodipy-FL-GTP binding, at 10 µM, actives lie on both sides.
As for `Cc1c(NP(C)(=O)Oc2ccc(C(C)C)cc2)c(=O)n(-c2ccccc2)n1C` (stereo not drawn), the GTP binding activity was inactive: 102%.
On to `O=[N+]([O-])c1cc([N+](=O)[O-])c(Nc2ccccn2)c([N+](=O)[O-])c1`, for which the GTP binding activity was inactive: 97%.
To `CCc1ccc(OP(C)(=O)O)cc1` belongs inactive: 100%; to `CP(=O)(Nc1ccccn1)Oc1ccccc1` (stereo not drawn), inactive: 104%; to `COc1ccccc1OP(C)(=O)Nc1ccc(C)cc1C` (stereo not drawn), inactive: 102%.
In the case of `CN(C)CCOC(=O)C(O)(c1ccccc1)C1CCCC1` (stereo not drawn), the GTP binding activity was inactive: 98%.
With `COc1ccc(OP(C)(=O)Nc2ccccn2)cc1` (stereo not drawn), the GTP binding activity is inactive: 95%.
Consider `Cc1nc2ccc3ccccc3c2o1.O=[N+]([O-])c1cc([N+](=O)[O-])c(O)c([N+](=O)[O-])c1`, for which the GTP binding activity is inactive: 103%.
`CP(=O)(Nc1ccc(Cl)cc1Cl)Oc1ccccc1` (stereo not drawn): the GTP binding activity is inactive: 96%.
For `CP(=O)(OCCOc1ccccc1)OCCOc1ccccc1`, the GTP binding activity was inactive: 97%.
The result for `Cc1cc(C)cc(OP(C)(=O)Nc2cccc(C(F)(F)F)c2)c1` (stereo not drawn) reads inactive: 96%; that for `COc1ccc(OP(C)(=O)Nc2ccccc2Br)cc1` (stereo not drawn), inactive: 101%; that for `COc1ccccc1OP(C)(=O)Nc1ccc(C)c(C)c1` (stereo not drawn), inactive: 98%.
The result for `CP(=O)(OC12CC3CC(CC(C3)C1)C2)OC12CC3CC(CC(C3)C1)C2` reads inactive: 101%; that for `CCOC(=O)c1ccc(NP(C)(=O)Oc2ccc(Cl)cc2)cc1` (stereo not drawn), inactive: 97%.
In the case of `CP(=O)(Nc1ccc(Cl)cc1)Oc1ccc(F)cc1` (stereo not drawn), the GTP binding activity is inactive: 101%.
In the case of `COc1ccccc1OP(C)(=O)Nc1ccccc1Br` (stereo not drawn), the GTP binding activity was inactive: 98%.
On to `CC(C)(C)c1ccc(OP(C)(=O)O)cc1`, for which the GTP binding activity was inactive: 108%.
To `CN(C)C(=O)c1c([N+](=O)[O-])cc([N+](=O)[O-])cc1[N+](=O)[O-]` belongs inactive: 99%; to `CCN(CC)CC(O)COC(=O)C(O)(c1ccccc1)C1CCCCC1` (stereo not drawn), inactive: 104%.
As to `COc1ccc(OP(C)(=O)Nc2ccc(Br)cc2)cc1` (stereo not drawn), the GTP binding activity is inactive: 99%.
To `CP(=O)(Oc1ccccc1)N1CCOC1=O` (stereo not drawn) belongs inactive: 99%; to `CCc1ccc(OP(C)(=O)Nc2cccnc2)cc1` (stereo not drawn), inactive: 92%.
With `CP(=O)(Nc1ccc2c(c1)OCCO2)Oc1ccccc1` (stereo not drawn), the GTP binding activity was inactive: 102%.
To `Cc1ccccc1NP(C)(=O)Nc1ccccc1C` belongs inactive: 100%; to `CCOP(C)(=S)SCC(=O)NC(C)(CC)C(=O)O` (stereo not drawn), inactive: 97%; to `O=[N+]([O-])c1cc([N+](=O)[O-])c(NCC2CCS(=O)(=O)C2)c([N+](=O)[O-])c1` (stereo not drawn), inactive: 94%.
The result for `COc1ccc(OP(C)(=O)Nc2cccc(Br)c2)cc1` (stereo not drawn) reads inactive: 103%; that for `COc1ccc(NP(C)(=O)Oc2ccccc2OC)cc1` (stereo not drawn), inactive: 101%; that for `CN(C)CCOC(=O)C(O)(c1ccccc1)C1CCCCC1` (stereo not drawn), inactive: 100%.
Consider `CCN(CC)CCCOC(=O)C(O)(c1ccccc1)C1CCCCC1` (stereo not drawn), for which the GTP binding activity was inactive: 99%.
Take `CP(=O)(Nc1ccccc1)Oc1ccc(F)cc1` (stereo not drawn): the GTP binding activity was inactive: 103%.
The result for `COc1ccc(OP(C)(=O)Nc2ccc(SC(F)(F)F)cc2)cc1` (stereo not drawn) reads inactive: 94%; that for `CCOC(=O)c1ccc(NP(C)(=O)Oc2ccc(F)cc2)cc1` (stereo not drawn), inactive: 98%; that for `O=C(OCCN1CCN(CCOCc2ccccc2)CC1)C(O)(c1ccccc1)c1ccccc1`, inactive: 103%.
`CP(=O)(Nc1ccccc1F)Oc1ccccc1` (stereo not drawn): the GTP binding activity is inactive: 96%.
As for `Cc1cc(C)cc(OP(C)(=O)Nc2ccccn2)c1` (stereo not drawn), the GTP binding activity was inactive: 101%.
On to `CP(=O)(Nc1cccc(Br)c1)Oc1ccccc1` (stereo not drawn), for which the GTP binding activity was inactive: 96%.
To `Cc1ccc(C)c(NP(C)(=O)Oc2ccccc2)c1` (stereo not drawn) belongs inactive: 100%; to `Cc1cc(C)cc(OP(C)(=O)Nc2ccc(C)cc2C)c1` (stereo not drawn), inactive: 102%.
For `CCOC(=O)c1ccc(NP(C)(=O)Oc2cc(C)cc(C)c2)cc1` (stereo not drawn), the GTP binding activity is inactive: 102%.
The result for `CC1=NCCc2c1[nH]c1ccccc21.O=[N+]([O-])c1cc([N+](=O)[O-])c(O)c([N+](=O)[O-])c1` reads inactive: 91%; that for `CN1CCCCC1COC(=O)C1(O)c2ccccc2CCc2ccccc21` (stereo not drawn), inactive: 102%.
Turning to `COc1ccccc1OP(C)(=O)Nc1c(C)cccc1C` (stereo not drawn), the GTP binding activity is inactive: 102%.
The result for `CCCOc1ccc(NP(C)(=O)Oc2ccc(Cl)cc2)cc1` (stereo not drawn) reads inactive: 93%.
The result for `CP(=O)(Nc1ccc(SC(F)(F)F)cc1)Oc1ccccc1` (stereo not drawn) reads inactive: 98%; that for `Cc1nc2ccc3ccccc3c2s1.O=[N+]([O-])c1cc([N+](=O)[O-])c(O)c([N+](=O)[O-])c1`, inactive: 100%.
To `O=[N+]([O-])c1cc([N+](=O)[O-])c(-n2nnc3ccccc32)c([N+](=O)[O-])c1` belongs inactive: 95%; to `CCOP(C)(=S)SCC(=O)NC(C)C(=O)O` (stereo not drawn), inactive: 105%; to `CCOC(=O)c1ccc(NP(C)(=O)Oc2ccc(OC)cc2)cc1` (stereo not drawn), inactive: 102%.
For `CP(=O)(Nc1ccccn1)Oc1ccc(Cl)cc1` (stereo not drawn), the GTP binding activity is inactive: 96%.
The result for `Cc1cccc(C)c1OP(C)(=O)Nc1ccc(SC(F)(F)F)cc1` (stereo not drawn) reads inactive: 96%.
As for `CP(=O)(Oc1ccccc1)OC(c1ccccc1)C(F)(F)F` (stereo not drawn), the GTP binding activity is inactive: 98%.
The result for `CP(=O)(NC(=O)Nc1ccccc1)Oc1ccccc1` (stereo not drawn) reads inactive: 99%.
To `Cc1cc(C)cc(OP(C)(=O)Nc2ccc(SC(F)(F)F)cc2)c1` (stereo not drawn) belongs inactive: 97%.
As to `CP(=S)(Nn1cnnc1)Oc1ccccc1` (stereo not drawn), the GTP binding activity is inactive: 103%.
To `COc1ccccc1OP(C)(=O)Nc1ccccc1` (stereo not drawn) belongs inactive: 96%; to `CP(=O)(Nc1ccccc1Br)Oc1ccccc1` (stereo not drawn), inactive: 103%.
As to `CCOC(=O)c1ccc(NP(C)(=O)Oc2ccccc2)cc1` (stereo not drawn), the GTP binding activity is inactive: 100%.
For the compound `COc1ccccc1OP(C)(=O)Nc1ccc(C)cc1` (stereo not drawn), the GTP binding activity was inactive: 99%.
Turning to `Cc1ccc(NP(C)(=O)Oc2ccccc2)c(C)c1` (stereo not drawn), the GTP binding activity is inactive: 99%.
To `COc1ccccc1OP(C)(=O)Nc1cc(Cl)ccc1C` (stereo not drawn) belongs inactive: 98%.
The result for `COc1ccc(OP(C)(=O)Nc2cccc(F)c2)cc1` (stereo not drawn) reads inactive: 100%.
Regarding `Cc1cc(C)cc(OP(C)(N)=O)c1` (stereo not drawn), the GTP binding activity is inactive: 98%.
Regarding `CC(C)(C)c1ccc(OP(C)(=O)Nc2ccc(SC(F)(F)F)cc2)cc1` (stereo not drawn), the GTP binding activity is inactive: 102%.
For `Cc1cccc(C)c1OP(C)(N)=O` (stereo not drawn), the GTP binding activity was inactive: 99%.
The result for `O=[N+]([O-])c1ccc2c(c1)C=Nc1ccccc1O2` reads inactive: 92%; that for `CCN(CC)CCCOC(=O)C(O)(c1ccccc1)c1ccccc1`, inactive: 102%.
